Assay results published in US5641861A, “μopioid receptor ligands: agonists and antagonists” (Torrey Pines Institute For Molecular Studies, priority 1995, dated 1997).

Amino acid sequences for entries named in this document (tags omitted). A change or cut given only in a name is not applied to a line headed by its entry.
UniProt P41144: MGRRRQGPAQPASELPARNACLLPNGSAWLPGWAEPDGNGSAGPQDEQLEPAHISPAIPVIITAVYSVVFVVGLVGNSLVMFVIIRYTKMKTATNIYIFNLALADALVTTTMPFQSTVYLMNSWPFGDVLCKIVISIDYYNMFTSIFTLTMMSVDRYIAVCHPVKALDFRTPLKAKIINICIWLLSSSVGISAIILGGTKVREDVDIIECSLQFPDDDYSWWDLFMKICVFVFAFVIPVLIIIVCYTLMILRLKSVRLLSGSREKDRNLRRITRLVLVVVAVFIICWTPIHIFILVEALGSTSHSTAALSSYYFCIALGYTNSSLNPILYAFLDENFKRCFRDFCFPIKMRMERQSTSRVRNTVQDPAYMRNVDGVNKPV
UniProt P33533, whole entry: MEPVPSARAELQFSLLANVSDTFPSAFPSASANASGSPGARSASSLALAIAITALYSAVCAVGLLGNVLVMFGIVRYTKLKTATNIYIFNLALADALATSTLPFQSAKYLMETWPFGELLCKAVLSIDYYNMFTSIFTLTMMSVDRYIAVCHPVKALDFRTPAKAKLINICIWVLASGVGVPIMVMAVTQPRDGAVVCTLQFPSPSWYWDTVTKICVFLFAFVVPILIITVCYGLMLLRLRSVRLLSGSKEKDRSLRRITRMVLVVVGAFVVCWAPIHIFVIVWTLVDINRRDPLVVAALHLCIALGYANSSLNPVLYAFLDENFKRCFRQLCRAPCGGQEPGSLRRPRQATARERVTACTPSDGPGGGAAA
UniProt P33535, whole entry: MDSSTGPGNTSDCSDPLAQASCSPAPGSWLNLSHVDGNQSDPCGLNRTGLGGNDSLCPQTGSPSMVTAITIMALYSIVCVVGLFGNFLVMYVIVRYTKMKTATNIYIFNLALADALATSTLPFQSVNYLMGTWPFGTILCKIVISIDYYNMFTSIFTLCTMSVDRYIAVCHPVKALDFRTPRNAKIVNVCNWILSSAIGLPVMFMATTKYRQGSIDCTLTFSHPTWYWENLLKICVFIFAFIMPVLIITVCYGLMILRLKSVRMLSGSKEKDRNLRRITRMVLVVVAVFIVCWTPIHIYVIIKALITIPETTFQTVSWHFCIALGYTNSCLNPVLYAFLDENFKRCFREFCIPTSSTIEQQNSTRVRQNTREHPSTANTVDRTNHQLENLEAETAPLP

Key:
Type in all cases: binding
κ receptors = biological target: T1, κ receptors (Cavia porcellus, UniProt P41144); assay: Radioreceptor assay selective for κ receptors ([3H]-U69,593); conditions: Table 10; [3H]-U69,593 3 nM, guinea pig brain homogenates
T1 construct: tissue homogenates prepared from guinea pig brains (cortex and cerebellum); tissue Harlan Bioproducts for Science; host or cells: guinea pig brain (cortex and cerebellum) homogenate
Description: Assays selective for κ receptors were carried out using [^3 H]-U69,593 (3 nM, specific activity 62 Ci/mmol) as the radioligand and tissue homogenates prepared from guinea pig brains (cortex and cerebellum) using Tris buffer containing 100 μM PMSF, 5 mMMgCl2 and 1 mg/ml BSA, pH 7.4. Sample tubes were incubated for 2.5 hr.

δ receptors = biological target: T2, δ receptors (Rattus norvegicus, UniProt P33533); assay: Radioreceptor assay selective for δ receptors ([3H]-naltrindole); conditions: Table 10; [3H]-naltrindole 0.5 nM, rat brain homogenates
T2 construct: Radioreceptor assays selective for δ receptors were performed using rat brain homogenates; tissue Harlan Bioproducts for Science; host or cells: rat brain crude membrane homogenate
Description: Radioreceptor assays selective for δ receptors were performed using rat brain homogenates as above and [^3 H]-naltrindole (0.5 nM, specific activity 34.7 Ci/mmol) as radioligand in Tris buffer containing 100 μM phenylmethylsulfonyl fluoride (PMSF), 5 mMMgCl2 and 1 mg/ml bovine serum albumin (BSA), pH 7.4. Samples were incubated for 2.5 hr. Standard curves were prepared using 0.10-3200 nM [^3 H]-D-Pen2, Pen5 ]-enkephalin ([^3 H]-DPDPE).

μ receptor = biological target: T3, μ receptor (Rattus norvegicus, UniProt P33535); assay: Radioreceptor assay selective for the mu receptor ([3H]-DAMGO); conditions: Table 10, rat brain homogenates
T3 construct: radioreceptor assay using rat brain homogenates and [^3 H]-DAMGO as radioligand; tissue Harlan Bioproducts for Science; host or cells: rat brain (cerebellum removed), crude membrane homogenate
Description: Following incubation, the suspensions were centrifuged as above, the resulting pellets resuspended in 100 volumes of Tris buffer and the suspensions combined. Membrane suspensions were prepared and used in the same day.
Binding assays were carried out in polypropylene tubes. […] Bound radioactivity was counted on a Beta-plate Liquid Scintillation Counter (Life Technologies, Gaithersburg, Md.) and expressed in counts per minute (cpm). […] Competitive inhibition assays were performed as above using serial dilutions of the peptide mixtures. IC50 values were then calculated using the software […] (ISI, San Diego, Calif.).

C[C@@H](NC(=O)[C@@H](N)Cc1ccc(O)cc1)C(=O)NCC(=O)N(C)[C@@H](Cc1ccccc1)C(=O)NCCO [DAMGO, [D-Ala^2, MePhe^4, Gly-ol^5]enkephalin, reference compound]
IC50 (κ receptors): 2530 nM | IC50 (δ receptors): 758 nM | IC50 (μ receptor): 3 nM
